Article PMC4138078, “Chemically Modified Peptide Scaffolds Target the CFTR-Associated Ligand PDZ Domain” (PLoS ONE, 2014)

Assays:
Test in all cases: FP
[1] = biological target: iCAL36; conditions: cited from earlier work
[2] = biological target: iCAL36 P-1 FB-K
[3] = biological target: iCAL36 P-4 Ac-K
[4] = biological target: iCAL36 P-3 Ac-K
[5] = biological target: iCAL36 P-1 Ac-K
[6] = biological target: iCAL36 P-1 Tfa-K
[7] = biological target: iCAL36 P-1 BB-K
[8] = biological target: iCAL36 P-5 Ac-K

- Ki [2]: 11.4 µM
- Ki [3]: 32.3 µM
- Ki [4]: 180 µM
- Ki [5]: 14.9 µM
- Ki [6]: 14.1 µM
- Ki [7]: 11.1 µM
- Ki [8]: 550 µM
Substance: CAL (CFTR-associated ligand) PDZ (from UniProt Q9HD26)
- Ki [1]: 22.6 µM
